Antibody variant affinities, Ab-95 light chain, assay 2

Source: Engelhart et al. 2022 (doi:10.1038/s41597-022-01779-4), MIT Lincoln Laboratory and A-Alpha Bio; data file from the FLAb repository.

All variants were tested on one target, the spike HR2 peptide PDVDLGDISGINAS (SARS-CoV-2).

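Phage display of a naive human antibody library on the peptide gave the parent. Library AAYL52 holds single substitutions and randomly drawn double and triple substitutions in the CDRs. Affinity was read by AlphaSeq, a pooled yeast mating assay with surface-displayed partners. Binding brings cells together so that they mate, and sequencing counts the barcode pairs among the diploids. A regression on co-assayed BCL2-family reference pairs converts the normalised counts of each replicate to an apparent Kd. The assay was run in three technical replicates.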

The variants keep the heavy chain, the linker and the frameworks of Ab-95 (scFv order VH, the linker GGGGSGGGGSGGGGS, VL).
VH: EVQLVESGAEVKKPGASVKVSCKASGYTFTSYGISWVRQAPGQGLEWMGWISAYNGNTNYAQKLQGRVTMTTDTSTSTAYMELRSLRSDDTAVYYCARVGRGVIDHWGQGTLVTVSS
VL: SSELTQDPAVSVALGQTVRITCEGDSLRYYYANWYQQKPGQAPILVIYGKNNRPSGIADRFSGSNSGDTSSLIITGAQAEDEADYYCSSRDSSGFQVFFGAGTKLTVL

Each variant is given by its three light chain CDRs, as the data file delimits them; those of the parent are EGDSLRYYYAN, GKNNRPS, SSRDSSGFQVF.
All variants listed here change G24 of the VL, counted from its first residue.
Values are apparent Kd, the geometric mean of the replicates that gave a signal; lower means stronger binding.
An entry "no signal" has no value in the source: the pair was not observed among the diploids in any replicate. This suggests poor binding but is not conclusive.

CDR-L1	CDR-L2	CDR-L3	Kd (apparent)	seen in	signal with controls
EVDSLRYQYAN	GKNNRPS	SHRDSSGFQVF	350 nM	3 of 3	2 of 9
EEDSLRYYYAN	IKNNRPS	SSRDSSGFQVF	16 µM	1 of 3	0 of 9
EIDSLRYYYAN	GKNNRPS	SSRDSSGVQQF	1.3 µM	2 of 3	2 of 9
EADSLRYYYAN	GKNNRPS	SSHDSEGFQVF	1.8 µM	3 of 3	5 of 9
ECDSLRYYYAN	GKNNRPS	SSRDSDGFQVD	250 nM	3 of 3	3 of 9
EDDSLRYYYAN	GKNNRPS	SSRDSSGFQVF	1.4 µM	3 of 3	2 of 9
EQDSLRYYFAN	GKNNRPS	SSRKSSGFQVF	2.4 µM	1 of 3	3 of 9
EIDSLRKYYAN	GKNNRPS	SSRDSSTFQVF	170 µM	2 of 3	5 of 9
EWQSLRYYYAN	GKNNRPS	SSRDSSGIQVF	12 µM	1 of 3	3 of 9
ECDSLRYYYAN	GKNNRPS	GSRFSSGFQVF	16 µM	3 of 3	3 of 9
EDDSLRYYYAN	GKNNRPV	SSRDSKGFQVF	no signal	0 of 3	3 of 9
ELDSLAYYYAN	GKNNRVS	SSRDSSGFQVF	6.5 µM	1 of 3	0 of 9
EYDSLRYYYAN	GKNNRPS	SSRDSSGFQVF	6.3 µM	2 of 3	3 of 9
EHDSLRYYYAN	GFNNRPS	SSRDSSKFQVF	1.1 µM	1 of 3	0 of 9
EDDSLRYYYAN	GKNNRPH	SSRDSSGTQVF	590 nM	2 of 3	2 of 9
ELDSLRYYYAN	MKNPRPS	SSRDSSGFQVF	8.7 µM	2 of 3	3 of 9
EWDSLRYYYPN	KKNNRPS	SSRDSSGFQVF	no signal	0 of 3	0 of 9
EEDSLRYYYAN	GKNNRPS	SSRDIGGFQVF	8.9 µM	1 of 3	4 of 9
EKDSLRWYYAN	GKNNRPS	YSRDSSGFQVF	10 µM	3 of 3	7 of 9
EWDSLRYYYAN	GKNNRPS	SSRDSSGFQVF	47 µM	2 of 3	4 of 9
EADSLRKYYAN	GKNNRPS	SHRDSSGFQVF	3.9 µM	1 of 3	3 of 9
EPFSLRYYYAN	QKNNRPS	SSRDSSGFQVF	14 µM	1 of 3	2 of 9
EQDSLRYYCAN	GKNNRPS	SSRDSSGPQVF	35 µM	2 of 3	5 of 9
EPDSLLYYYAN	GKNNRPF	SSRDSSGFQVF	no signal	0 of 3	0 of 9
EVDSLRYYYAN	GKNNRRS	SSRDSSGFQVF	230 µM	1 of 3	3 of 9
ELDSLRYYYAN	GKNNDPS	SSRDESGFQVF	510 nM	1 of 3	5 of 9
EKDSFRYYYAN	GKNNRPS	SSRDSSGFQMF	no signal	0 of 3	1 of 9
ECDELRYYYAN	GCNNRPS	SSRDSSGFQVF	4.2 µM	2 of 3	2 of 9
EHDSIRYYYAN	GKNWRPS	SSRDSSGFQVF	9.7 µM	3 of 3	6 of 9
EPSSLRYYCAN	GKNNRPS	SSRDSSGFQVF	37 µM	2 of 3	4 of 9
ECASLRYYYAN	RKNNRPS	SSRDSSGFQVF	23 µM	3 of 3	3 of 9
EPDSLNYYYAN	GKNMRPS	SSRDSSGFQVF	55 nM	3 of 3	4 of 9
EWDSLRYYQAN	CKNNRPS	SSRDSSGFQVF	16 µM	3 of 3	5 of 9
ELDSLVYYYAN	GKNNRPS	SSRDSSGFQVF	3.4 µM	3 of 3	4 of 9
EHDSLRYYYAN	GKNNRPS	SSRYSNGFQVF	410 nM	3 of 3	1 of 9
ERPSLRYYYAN	GKNNRPS	SSRDSSMFQVF	9.7 µM	1 of 3	1 of 9
ESDSLRYYYWN	GKNNRPS	SSRDSSNFQVF	28 µM	1 of 3	1 of 9
ELDSLRYYYAI	GKNNRPS	SSRDSSGFQVF	1.1 µM	3 of 3	4 of 9
EMDSLRYYYAN	EKNNRPS	SSRDVSGFQVF	41 µM	1 of 3	2 of 9
ELDSLRYYYAN	GKNNRPS	GSRDSSGFQVF	29 µM	1 of 3	4 of 9
EFDSLRYYYAN	GKNNRPS	SSRDSFTFQVF	no signal	0 of 3	2 of 9
ESDSLRYYYAN	QKNNRPS	SSRDSSGFQCF	no signal	0 of 3	4 of 9
EEDSLRYYYAN	GKNNRYS	SSRDSSGFQCF	12 µM	1 of 3	4 of 9
EEDSLRNYYAN	GKNNRPS	SSRDSSGFQVF	no signal	0 of 3	1 of 9
EHDSLRYYYAN	GKNNRPS	SSRDSSGFQVF	1.3 µM	2 of 3	1 of 9
EYASLRYYYAN	GKNNRPS	SSRDSSGFQVF	1.5 µM	2 of 3	4 of 9
EDDSLRYYYAN	GKNNRPS	LSRDSSNFQVF	4.0 µM	1 of 3	4 of 9
EPDSLRYYYAN	GKNNRPS	SSRDSSGFQVF	22 µM	1 of 3	2 of 9
EMDSLRYYYAD	GKNNRPS	SSRDSSGFQVF	6.6 µM	2 of 3	3 of 9
EVDSLRYYYAN	GENNRPS	SSRDSSGQQVF	920 nM	3 of 3	3 of 9
EKDSLRYYYAN	GKNDRPS	SSRDSSGFQVF	820 nM	3 of 3	1 of 9
EQDSLRYYYAN	GKANTPS	SSRDSSGFQVF	22 µM	1 of 3	2 of 9
EDDSLRSYYAN	GKNNRPS	GSRDSSGFQVF	1.5 µM	3 of 3	5 of 9
RWDSLRYYYAN	GKNNRPS	SSRDSSYFQVF	11 µM	2 of 3	0 of 9
EKDSFRYYYAN	GKNHRPS	SSRDSSGFQVF	11 µM	2 of 3	3 of 9
EWDSLRYYYAN	GKNIRPN	SSRDSSGFQVF	6.6 µM	3 of 3	1 of 9
EFESLRYYYAN	GKNNRDS	SSRDSSGFQVF	26 µM	2 of 3	5 of 9
ESDSLRYYYAN	GKNNRPS	SSRDSSYFQVF	560 nM	3 of 3	2 of 9
EQDSLRYCYAN	GKNNRPS	SSRDSSGFQKF	6.1 µM	1 of 3	3 of 9
ERDSLRYYYAN	GKRNRPS	SSRDSSGFQGF	10 µM	2 of 3	5 of 9
EVDSLRYYYAN	YKNNRPS	SPRDSSGFQVF	no signal	0 of 3	2 of 9
ESDLLRYYYAN	GKNNRPS	SSRDSSGFQVL	2.9 µM	3 of 3	0 of 9
ENLSLRYYYAN	GKNNRPS	SSRDSSGCQVF	17 µM	1 of 3	3 of 9
EMDSARYAYAN	GKNNRPS	SSRDSSGFQVF	37 nM	3 of 3	2 of 9
EFDSLRYYYAN	GKNNNPS	SSRDSSGFKVF	80 µM	2 of 3	2 of 9
EQNSLRYYYAN	GKNNRPS	SSRDCSGFQVF	1.8 µM	1 of 3	4 of 9
ESDSLRYYYAC	GKNNRPS	SSRDSSGFQRF	no signal	0 of 3	2 of 9
EWDSLRYYYFN	GKNNRNS	SSRDSSGFQVF	no signal	0 of 3	1 of 9
EDDSLRYYYAN	GKNNRPT	SSRDSSGFQHF	2.5 µM	2 of 3	1 of 9
ETDSLRYYYAN	GKNNNPS	SSRDSSGFQVF	no signal	0 of 3	1 of 9
EMESLRYDYAN	GKNNRPS	SSRDSSGFQVF	120 nM	3 of 3	1 of 9
ECDSLRYYYAN	KKDNRPS	SSRDSSGFQVF	3.4 µM	1 of 3	2 of 9
ENDSPRYYYAN	GHNNRPS	SSRDSSGFQVF	15 µM	2 of 3	3 of 9
ELDSLRYYYAN	VKNNRPS	YSRDSSGFQVF	no signal	0 of 3	1 of 9
ESDSLRYYYAN	GKNNRHS	SHRDSSGFQVF	5.0 µM	2 of 3	0 of 9
ESDSVRYYYAN	GKNNDPS	SSRDSSGFQVF	no signal	0 of 3	0 of 9
EPDSLRYYYAN	GQNNRVS	SSRDSSGFQVF	590 nM	3 of 3	3 of 9
ECDSLRYYYAN	GKNNRPS	SHRDSSGFQSF	no signal	0 of 3	3 of 9

A selection of 5 entries from above:

CDR-L1	CDR-L2	CDR-L3	Kd (apparent)	seen in	signal with controls
EFDSLRYYYAN	GKNNRPS	SSRDSFTFQVF	no signal	0 of 3	2 of 9
EDDSLRYYYAN	GKNNRPH	SSRDSSGTQVF	590 nM	2 of 3	2 of 9
ELDSLRYYYAI	GKNNRPS	SSRDSSGFQVF	1.1 µM	3 of 3	4 of 9
ESDSLRYYYAN	GKNNRHS	SHRDSSGFQVF	5.0 µM	2 of 3	0 of 9
ECDSLRYYYAN	GKNNRPS	GSRFSSGFQVF	16 µM	3 of 3	3 of 9

Background: pairings of library AAYL52 with three empty control strains gave a value in 28% of cases (median 8.2 µM, 5th percentile 800 nM). Values in that range, when seen in few replicates, are hard to tell from nonspecific mating. The control count says in how many pairings with the empty strains this scFv gave a signal.
Parent in this assay: reference entry 200 nM, copy in this library 180 nM.